Data taken from article PMC7043210, “Differential activation of G protein‐mediated signaling by synthetic cannabinoid receptor agonists” (Pharmacology Research & Perspectives, 2020).
“And” between values parts separate entries of the source, which are not always exact repeats. Equal values may be shown once.

Sequences of proteins named here, by UniProt entry; tags and fusion partners are left off.
UniProt P21554, whole entry: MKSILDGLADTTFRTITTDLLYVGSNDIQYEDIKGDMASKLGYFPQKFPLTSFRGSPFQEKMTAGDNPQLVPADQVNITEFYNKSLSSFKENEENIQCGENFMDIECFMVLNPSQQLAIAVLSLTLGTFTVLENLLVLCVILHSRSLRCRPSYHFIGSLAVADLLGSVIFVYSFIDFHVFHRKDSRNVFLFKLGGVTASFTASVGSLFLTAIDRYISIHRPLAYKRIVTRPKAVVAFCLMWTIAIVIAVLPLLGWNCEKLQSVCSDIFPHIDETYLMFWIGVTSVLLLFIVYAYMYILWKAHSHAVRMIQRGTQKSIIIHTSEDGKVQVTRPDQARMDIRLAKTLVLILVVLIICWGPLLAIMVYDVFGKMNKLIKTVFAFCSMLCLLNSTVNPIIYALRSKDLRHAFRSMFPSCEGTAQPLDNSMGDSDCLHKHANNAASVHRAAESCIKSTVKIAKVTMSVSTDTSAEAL

Target: human CB1 receptor (Homo sapiens, UniProt P21554)
Assay: Inhibition of FSK-induced cAMP accumulation (Gαi/o, non-PTX treated), CAMYEL BRET biosensor, HEK-CB1 cells
Format: cell-based
Settings: FSK 100%, vehicle 0%, three parameter fit, ± SEM

SMILES: CCCCCn1cc(C(=O)c2cccc3ccccc23)c2ccccc21 [JWH‐018]
- G i (‐PTX) E max (% FSK): 64 % FSK and 64 ± 3 % FSK
